Key:
human μ-opioid receptor [1] = target: T1, human μ-opioid receptor (Homo sapiens, UniProt P35372); experiment: In vitro mu-opioid receptor [35S]GTPγS functional assay; type: biochemical; conditions: read-out: GTPγS Opioid Receptor EC50 Mu [mean ± SEM]; procedure of Example 40
kappa opioid receptor [2] = target: T2, kappa opioid receptor (Homo sapiens, UniProt P41145); experiment: In vitro kappa-opioid receptor binding assay ([3H]-U69,593 displacement); conditions: read-out: Ki [Average ± Std Deviation] Opioid Receptor Kappa; binding to kappa-opioid receptor, procedure of Example 41
[3] = target: T3, human opioid receptor-like (ORL-1) (Homo sapiens, UniProt P41146); experiment: In vitro ORL-1 receptor [35S]GTPγS functional assay; type: biochemical; conditions: procedure of Example 38; for EC50: read-out: GTPγS ORL-1 EC50 [mean ± SEM]
kappa opioid receptor [4] = target: T2, kappa opioid receptor; experiment: In vitro kappa-opioid receptor [35S]GTPγS functional assay; conditions: read-out: GTPγS Opioid Receptor EC50 Kappa [mean ± SEM]; procedure of Example 42
human μ-opioid receptor [5] = target: T1, human μ-opioid receptor; experiment: In vitro mu-opioid receptor binding assay ([3H]-diprenorphine displacement); conditions: read-out: Ki [Average ± Std Deviation] Opioid Receptor Mu; binding to mu-opioid receptor, procedure of Example 39
human δ-opioid receptors = human δ-opioid receptors (Homo sapiens, UniProt P41143); experiment: In vitro delta-opioid receptor [35S]GTPγS functional assay; conditions: read-out: GTPγS Opioid Receptor EC50 Delta [mean ± SEM]; procedure of Example 44
[6] = target: T3, human opioid receptor-like (ORL-1); experiment: In vitro ORL-1 receptor binding assay ([3H]-nociceptin displacement); conditions: read-out: Ki [Average ± Std Deviation] ORL-1; binding to ORL-1 receptor, procedure of Example 37
[7] = target: recombinant delta opioid receptor expressed in CHO-K1 cells (Homo sapiens, UniProt P41143); experiment: In vitro delta-opioid receptor binding assay ([3H]-Naltrindole displacement); conditions: read-out: Ki [Average ± Std Deviation] Opioid Receptor Delta; binding to delta-opioid receptor, procedure of Example 43

SMILES | EC50 (human μ-opioid receptor [1]) | Ki (kappa opioid receptor [2]) | GTPγS ORL-1 Emax [mean ± SEM] [3] | EC50 [3] | EC50 (kappa opioid receptor [4]) | Ki (human μ-opioid receptor [5]) | EC50 (human δ-opioid receptors) | Ki [6] | Ki [7]
C[C@@H]1C[C@@H]2C[C@H](C1)C[C@@H](N1[C@@H]3CCC[C@H]1C[C@@H](n1c(=O)c(-c4c[nH]c(=O)cn4)nc4ccccc41)C3)C2 [Compound U052, 1-((1R,1′R,3r,3′R,5S,5′S,7S)-7-methyl-[3,9′-bi(9′-azabicyclo[3.3.1]nonan)]-3′-yl)-3-(5-oxo-4,5-dihydropyrazin-2-yl)quinoxalin-2(1H)-one] | > 20000 nM | 58.3 nM | 28.3 ± 3.7% | 2.54 nM | > 20000 nM | 14.5 nM | > 20000 nM | 1.07 nM | 669 nM
O=C(O)Cn1c(-c2nc3ccccc3n([C@H]3C[C@H]4CCC[C@@H](C3)N4[C@@H]3C[C@@H]4CCCC[C@@H](C4)C3)c2=O)cccc1=O [EE1b(iii), 2-(6-(4-((1R,3R,5S)-9-((1R,6S,8s)-bicyclo[4.3.1]decan-8-yl)-9-azabicyclo[3.3.1]nonan-3-yl)-3-oxo-3,4-dihydroquinoxalin-2-yl)-2-oxopyridin-1(2H)-yl)acetic acid] | > 20000 nM | 23.7 nM | 31.3 ± 2.3% | 6.2 nM | > 20000 nM | 87 nM | 863 nM | 0.8 nM | 877 nM
O=C(O)Cn1c(-c2nc3ccccc3n([C@H]3C[C@H]4CC[C@@H](C3)N4[C@H]3C[C@@H]4CCC[C@@H](C4)C3)c2=O)cccc1=O [Q1a(iii), 2-(6-(4-((1R,3R,5S)-8-((1R,3r,5S)-bicyclo[3.3.1]nonan-3-yl)-8-azabicyclo[3.2.1]octan-3-yl)-3-oxo-3,4-dihydroquinoxalin-2-yl)-2-oxopyridin-1(2H)-yl)acetic acid] | > 20000 nM | 138 nM | 35.0 ± 1.2% | 87 nM | > 20000 nM | 293 nM |  | 12.8 nM | 7040 nM
O=c1cncc(-c2nc3ccccc3n([C@H]3C[C@H]4CCC[C@@H](C3)N4[C@H]3C[C@@H]4CCC[C@@H](C4)C3)c2=O)[nH]1 [R3a(i), 1-((1R,1′R,3r,3′R,5S,5′S)-[3,9′-bi(9′-azabicyclo[3.3.1]nonan)]-3′-yl)-3-(6-oxo-1,6-dihydropyrazin-2-yl)quinoxalin-2(1H)-one] | > 20000 nM | 93.4 nM | 36.8 ± 2.5% | 7.5 nM | > 20000 nM | 151 nM |  | 3.05 nM | > 20000 nM

From patent US9085561B2, “Cyclic urea- or lactam-substituted quinoxaline-type piperidines as ORL-1 modulators” (priority 2012, dated 2015)
